# Source: patent US20130123253A1, “MODULATORS OF CENTRAL NERVOUS SYSTEM NEUROTRANSMITTERS” (HUMAN BIOMOLECULAR RESEARCH INSTITUTE, priority 2004, published 2013)
# Protein sequences, listed by entry. Tags and fused reporters are not part of them.
# UniProt Q01959, whole entry: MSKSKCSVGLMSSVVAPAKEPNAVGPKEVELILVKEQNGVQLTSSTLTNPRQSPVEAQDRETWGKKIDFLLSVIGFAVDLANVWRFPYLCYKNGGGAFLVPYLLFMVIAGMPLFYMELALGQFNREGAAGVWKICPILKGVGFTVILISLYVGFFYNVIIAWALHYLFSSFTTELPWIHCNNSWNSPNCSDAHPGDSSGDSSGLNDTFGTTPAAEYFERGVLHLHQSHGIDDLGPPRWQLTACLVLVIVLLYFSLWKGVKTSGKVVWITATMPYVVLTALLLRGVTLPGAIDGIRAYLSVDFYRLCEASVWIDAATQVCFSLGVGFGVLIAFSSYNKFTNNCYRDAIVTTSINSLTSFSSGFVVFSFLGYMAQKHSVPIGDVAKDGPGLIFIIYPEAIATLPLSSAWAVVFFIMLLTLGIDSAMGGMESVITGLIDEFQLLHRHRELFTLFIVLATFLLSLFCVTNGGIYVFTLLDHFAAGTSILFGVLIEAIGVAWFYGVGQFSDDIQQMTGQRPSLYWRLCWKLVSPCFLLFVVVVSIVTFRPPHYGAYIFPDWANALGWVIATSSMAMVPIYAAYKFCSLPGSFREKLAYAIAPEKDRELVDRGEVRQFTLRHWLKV
# UniProt P31645, whole entry: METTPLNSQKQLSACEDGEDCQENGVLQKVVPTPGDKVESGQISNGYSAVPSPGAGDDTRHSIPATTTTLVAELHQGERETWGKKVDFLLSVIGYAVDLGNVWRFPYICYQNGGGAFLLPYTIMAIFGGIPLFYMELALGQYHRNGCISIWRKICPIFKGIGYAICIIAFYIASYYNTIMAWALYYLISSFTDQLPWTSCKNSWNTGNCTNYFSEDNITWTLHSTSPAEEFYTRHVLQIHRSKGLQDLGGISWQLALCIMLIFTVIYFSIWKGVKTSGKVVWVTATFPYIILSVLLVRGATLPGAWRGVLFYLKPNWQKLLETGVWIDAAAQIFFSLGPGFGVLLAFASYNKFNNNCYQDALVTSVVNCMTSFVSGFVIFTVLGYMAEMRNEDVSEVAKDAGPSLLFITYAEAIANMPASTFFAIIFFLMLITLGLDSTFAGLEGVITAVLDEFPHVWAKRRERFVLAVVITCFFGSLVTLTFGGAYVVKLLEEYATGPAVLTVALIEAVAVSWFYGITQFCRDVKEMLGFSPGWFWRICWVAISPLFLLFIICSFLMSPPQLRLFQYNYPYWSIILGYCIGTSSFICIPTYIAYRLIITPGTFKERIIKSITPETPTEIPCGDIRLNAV
# Experiments:
# [1] = molecular target: human dopamine transporter (hDAT) (Homo sapiens, UniProt Q01959); conditions: read-out: Reuptake (IC50, nM) hDAT; Table 15; mean ± S.E.M.
# [2] = molecular target: T1, human serotonin transporter (hSERT) (Homo sapiens, UniProt P31645); conditions: for IC50: read-out: Reuptake (IC50, nM) hSERT
# [3] = molecular target: T1, human serotonin transporter (hSERT); experiment: Inhibition of [125I]RTI-55 binding in HEK-hSERT cell membranes
compound,measurement,setting,value
"COc1ccc(F)cc1CCCC1CCC(CCN)O1 (stereo not shown) [Compound 15, 2-Aminoethyl-5-(3′-(2″-methoxy-5″-fluorophenyl)-1′-propyl)tetrahydrofuran]",IC50,[1],17000 ± 1350 nM
"CNCCC1CCC(CCc2cc(F)ccc2OC)O1 (stereo not shown) [Compound 24, (2-{5-[2-(5-Fluoro-2-methoxy-phenyl)-ethyl]-tetrahydro-furan-2-yl}-ethyl)-methyl-amine]",IC50,[2]; Table 6,18.4 nM
same,Ki,"[3]; read-out: Binding (Ki, nM) hSERT, Table 15, mean ± S.E.M.",21.2 ± 4.3 nM
"N,N-bis(5′- (1″- naphth- ethyl)- 2′-tetra- hydro- furylethyl) amine",Ki,"[2]; read-out: Reuptake (kup, nM) hSERT, Table 2",718 nM
same,Ki,"[3]; read-out: Binding (ki, nM) hSERT, Table 2",283 nM
N-Methyl-2-aminoethyl-5-((2″-methoxy-5″-fluorophenyl)-3′-propyl)tetrahydrofuran,IC50,[2],3.1 nM
same,Ki,"[3]; read-out: Binding (Ki, nM) hSERT",4.5 nM

# Read-outs that look alike come from different tables or passages of the source.
